Molecular target: human A2b receptor subtype (Homo sapiens, UniProt P29275)
Settings: read-out: Binding Ki (nM) A2b; Table 13

By UniProt entry, the sequences of proteins in these tests, tags left out.
UniProt P29275, whole entry: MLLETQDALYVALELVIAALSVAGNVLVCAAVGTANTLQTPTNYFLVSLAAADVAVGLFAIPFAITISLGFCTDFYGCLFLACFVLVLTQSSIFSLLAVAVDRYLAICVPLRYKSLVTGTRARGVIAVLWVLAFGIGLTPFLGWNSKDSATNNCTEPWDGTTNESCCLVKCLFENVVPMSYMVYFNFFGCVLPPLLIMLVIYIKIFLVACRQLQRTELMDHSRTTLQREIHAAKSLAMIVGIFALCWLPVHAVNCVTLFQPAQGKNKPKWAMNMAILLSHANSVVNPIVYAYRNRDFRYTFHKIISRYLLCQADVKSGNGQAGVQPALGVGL

Ki: 168 nM
SMILES: Cc1[nH]c2nc(-c3cccs3)nc(N[C@H]3CC[C@H](O)CC3)c2c1C (relative stereo)
